The chains behind the UniProt entries cited, without tags or fusion partners.
UniProt P27487, whole entry: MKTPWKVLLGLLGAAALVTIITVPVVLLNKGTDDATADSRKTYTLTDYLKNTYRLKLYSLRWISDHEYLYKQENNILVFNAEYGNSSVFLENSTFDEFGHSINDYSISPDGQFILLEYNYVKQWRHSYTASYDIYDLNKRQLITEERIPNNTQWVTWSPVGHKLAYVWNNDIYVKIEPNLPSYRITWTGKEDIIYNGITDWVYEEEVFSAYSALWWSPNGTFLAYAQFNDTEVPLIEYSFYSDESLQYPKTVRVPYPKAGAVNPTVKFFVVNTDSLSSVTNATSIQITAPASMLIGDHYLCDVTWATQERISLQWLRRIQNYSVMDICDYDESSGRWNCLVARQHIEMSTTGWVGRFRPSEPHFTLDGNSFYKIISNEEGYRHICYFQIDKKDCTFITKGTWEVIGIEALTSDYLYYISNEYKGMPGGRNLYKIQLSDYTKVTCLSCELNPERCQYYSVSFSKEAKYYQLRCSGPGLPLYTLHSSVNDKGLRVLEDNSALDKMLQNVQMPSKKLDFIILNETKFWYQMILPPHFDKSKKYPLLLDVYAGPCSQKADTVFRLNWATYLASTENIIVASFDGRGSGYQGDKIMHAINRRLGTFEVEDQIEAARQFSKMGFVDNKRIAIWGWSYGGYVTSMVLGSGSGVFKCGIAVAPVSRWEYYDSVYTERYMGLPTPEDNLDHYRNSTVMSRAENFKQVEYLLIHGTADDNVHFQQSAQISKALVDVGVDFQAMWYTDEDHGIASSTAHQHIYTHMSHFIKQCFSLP

In ChEMBL document CHEMBL5150054, “Pyrazole-containing pharmaceuticals: target, pharmacological activity, and their SAR studies” (RSC Med Chem, 2022):

Target: Dipeptidyl peptidase 4 (Homo sapiens, UniProt P27487)

## Cc1cc2ncc(C(=O)NCC(C)(C)NCC(=O)N3CCC[C@H]3C#N)cn2n1 [ANAGLIPTIN]
  IC50: 3.3 nM
